# Test results from PubChem BioAssay AID588413 (Sanford-Burnham Center for Chemical Genomics, 2011).
# This is a selection; strong and weak results do not stand in their true shares. Some tests of the compounds listed are not included; inactive here does not mean inactive elsewhere. Calls of active or inactive are those of the source.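 The calls were made as follows: active = inhibition above about 55% (limit read from the data); inactive = the rest.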
# Experiment: Gli-Sufu pathway antagonists, primary screen, luciferase luminescence, Sufu-KO-LIGHT cells, uHTS (AID 588413);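 also: 0% = DMSO-treated cells and 100% = wells with medium but no cells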
# Conditions: Sufu-KO-LIGHT fibroblasts, Gli luciferase reporter luminescence; at 5 µM; hits give high values
row,SMILES,inhibition
1,COc1cc(C(=O)NCC2(N(C)C)CCCCC2)c([N+](=O)[O-])cc1OC,inactive: 6.56%
2,COc1ccc(Cl)cc1C(=O)NCC1(N(C)C)CCCCC1,inactive: 17.7%
3,COc1cccc(C(=O)NCC2(N3CCCCC3)CCCCC2)c1,inactive: 4.66%
4,O=C(NCC1(N2CCCCC2)CCCCC1)c1cccc(Cl)c1,inactive: 7.86%
5,O=C(OC1CN2CCC1CC2)C(CO)(c1ccccc1)c1ccccc1 (centres undefined),inactive: -11.6%
6,COc1ccc(Br)c(C(=O)NCC2(N3CCCCC3)CCCCC2)c1,inactive: 5.02%
7,O=C(OCCN1CCCC1)C(O)(c1ccccc1)c1ccccc1,inactive: 3.12%
8,CC(C)Oc1ccc(C(=O)NCC2(N(C)C)CCCCC2)cc1,inactive: 6.78%
9,CN(C)c1cccc(C(=O)NCC2(N(C)C)CCCCC2)c1,inactive: 4.39%
10,O=C(NCC1(N2CCCCC2)CCCCC1)c1cc([N+](=O)[O-])ccc1Cl,inactive: 3.56%
11,CN1[C@@H]2CC[C@H]1CC(OC(=O)C(O)(c1ccccc1)c1ccccc1)C2 (some centres undefined),inactive: 14.6%
12,COc1cc(SC)ccc1C(=O)NCC1(N(C)C)CCCCC1,inactive: 7.59%
13,CCN(CC)CC(C)C(C)OC(=O)C(O)(c1ccccc1)c1ccccc1 (centres undefined),inactive: 0.76%
14,CC(C)N1C(=O)CC2(CCN(CCOC(=O)C(O)(c3ccccc3)c3ccccc3)CC2)C1=O,inactive: -1.15%
15,Cc1ccc(C(=O)NCC2(N3CCCCC3)CCCCC2)cc1,inactive: 20.4%
16,CN(C)C1CCCC1OC(=O)C(O)(c1ccccc1)c1ccccc1 (centres undefined),inactive: -1.36%
17,CN(C)c1ccc(C(=O)NCC2(N(C)C)CCCCC2)cc1,inactive: 0.83%
18,Cc1ccccc1C(=O)NCC1(N2CCCCC2)CCCCC1,inactive: -0.52%
19,O=C(NCC1(N2CCCCC2)CCCCC1)c1cc(F)c(F)cc1Cl,inactive: -15.1%
20,C=CCN1CCN(CCOC(=O)C(O)(c2ccccc2)c2ccccc2)CC1,inactive: 3.31%
21,COc1ccc(C(=O)NCC2(N(C)C)CCCCC2)cc1,inactive: 1.57%
22,O=C(NCC1(N2CCCCC2)CCCCC1)c1cccc(Br)c1,inactive: 41.8%
23,Cc1cc(C(=O)NCC2(N3CCCCC3)CCCCC2)ccc1[N+](=O)[O-],inactive: 4.36%
24,CCN1CCCC(OC(=O)C2(O)c3ccccc3C=Cc3ccccc32)C1 (centres undefined),inactive: 3.77%
